US7462599B2, “Use of effectors of glutaminyl and glutamate cyclases” (Probiodrug AG, priority 2003, dated 2008)
Like-named read-outs stand apart in the source and are kept apart here.

Chains of the proteins cited; added tags and fusions are not shown. Residues count along the entry.
UniProt Q16769, 29-361: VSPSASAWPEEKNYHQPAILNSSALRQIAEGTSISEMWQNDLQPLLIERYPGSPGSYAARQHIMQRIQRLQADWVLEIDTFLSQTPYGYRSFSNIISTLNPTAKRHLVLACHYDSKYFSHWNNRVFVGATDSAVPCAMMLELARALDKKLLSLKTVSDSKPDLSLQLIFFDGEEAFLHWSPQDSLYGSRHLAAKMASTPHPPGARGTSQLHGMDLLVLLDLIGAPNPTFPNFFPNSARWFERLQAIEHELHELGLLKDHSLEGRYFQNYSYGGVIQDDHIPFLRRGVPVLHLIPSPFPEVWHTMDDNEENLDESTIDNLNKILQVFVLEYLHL

Biological target: QC (Homo sapiens, UniProt Q16769)
Test: Continuous spectrophotometric assay of substrate conversion, human QC;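 further: initial rates read at 30 °C in a microplate reader, with activity quantified against an ammonia calibration curve under the same assay conditions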
Type: biochemical
Parameters: The cDNA of the mature QC starting with codon 38 was fused in frame with the plasmid encoded 6× histidine tag; 6x histidine tag; made in house; host or cells: Pichia pastoris X33 (pPICZαB); also E. coli M15 (pQE-31)
Settings: for Ki / Ki*: n.i. = no inhibition; for Ki*: for substrate inhibition
[1] = 0.05 M Tris-HCl, pH 8.0, 0.5 M KCl

Row | Km (0.05 M Tris-HCl, pH 8.0) | kcat (0.05 M Tris-HCl, pH 8.0) | Km [1] | kcat [1] | Ki [1] | Ki (0.05 M Tris-HCl, pH 8.0) | Ki* (Table 6) | Km (Table 6, n.r. = not reactive) | kcat (Table 6, n.r. = not reactive) | SMILES | Km
1 | 166 ± 13 µM | 31 ± 1 s⁻¹ | 91 ± 5 µM | 29.8 ± 0.5 s⁻¹ | n.i. | n.i. | n.i. | 143 ± 4 µM | 33.5 ± 0.4 s⁻¹ | CC[C@H](C)[C@H](NC(=O)CNC(=O)[C@H](CCCNC(=N)N)NC(=O)[C@@H](N)CCC(N)=O)C(N)=O [H-Gln-Arg-Gly-Ile-NH2] | –
2 | – | – | – | – | – | – | n.i. | 55 ± 2 µM | 29.6 ± 0.3 s⁻¹ | N=C(N)NCCC[C@H](NC(=O)[C@@H](N)CCC(N)=O)C(=O)N[C@@H](Cc1ccc(O)cc1)C(=O)N[C@@H](Cc1ccccc1)C(N)=O [H-Gln-Arg-Tyr-Phe-NH2] | –
3 | – | – | – | – | – | – | n.i. | 172 ± 5 µM | 56.6 ± 0.5 s⁻¹ | CC[C@H](C)[C@H](NC(=O)CNC(=O)[C@H](CC(N)=O)NC(=O)[C@@H](N)CCC(N)=O)C(N)=O [H-Gln-Asn-Gly-Ile-NH2] | –
4 | – | – | – | – | – | – | n.i. | 41 ± 2 µM | 41.4 ± 0.4 s⁻¹ | NC(=O)CC[C@H](NC(=O)[C@@H](N)CCC(N)=O)C(=O)N[C@@H](Cc1ccc(O)cc1)C(=O)N[C@@H](Cc1ccccc1)C(N)=O [H-Gln-Gln-Tyr-Phe-NH2] | –
5 | – | – | – | – | – | – | n.i. | 77 ± 4 µM | 46 ± 1 s⁻¹ | C[C@H](NC(=O)[C@H](C)NC(=O)[C@H](CCC(=O)O)NC(=O)[C@@H](N)CCC(N)=O)C(N)=O [H-Gln-Glu-Ala-Ala-NH2] | –
6 | – | – | – | – | – | – | n.i. | 39 ± 3 µM | 39 ± 1 s⁻¹ | C[C@H](NC(=O)[C@H](CCC(=O)O)NC(=O)[C@@H](N)CCC(N)=O)C(=O)N[C@@H](Cc1ccccc1)C(N)=O [H-Gln-Glu-Ala-Phe-NH2] | –
7 | 60 ± 2 µM | 46.6 ± 0.5 s⁻¹ | 61 ± 2 µM | 45.6 ± 0.5 s⁻¹ | n.i. | n.i. | n.i. | 55 ± 2 µM | 45.8 ± 0.5 s⁻¹ | CC(C)C[C@H](NC(=O)[C@H](CC(=O)O)NC(=O)[C@H](CCC(=O)O)NC(=O)[C@@H](N)CCC(N)=O)C(N)=O [H-Gln-Glu-Asp-Leu-NH2] | –
8 | – | – | – | – | – | – | n.i. | 69 ± 2 µM | 42.1 ± 0.4 s⁻¹ | C[C@H](NC(=O)[C@H](Cc1ccc(O)cc1)NC(=O)[C@H](CCC(=O)O)NC(=O)[C@@H](N)CCC(N)=O)C(N)=O [H-Gln-Glu-Tyr-Ala-NH2] | –
9 | – | – | – | – | – | – | n.i. | 47 ± 4 µM | 46 ± 1 s⁻¹ | NC(=O)CC[C@H](N)C(=O)N[C@@H](CCC(=O)O)C(=O)N[C@@H](Cc1ccc(O)cc1)C(=O)N[C@@H](Cc1ccccc1)C(N)=O [H-Gln-Glu-Tyr-Phe-NH2] | –
10 | – | – | – | – | – | – | n.i. | 68 ± 3 µM | 55.4 ± 0.7 s⁻¹ | NC(=O)CC[C@H](N)C(=O)N[C@@H](Cc1c[nH]cn1)C(=O)N[C@@H](Cc1ccc(O)cc1)C(=O)N[C@@H](Cc1ccccc1)C(N)=O [H-Gln-His-Tyr-Phe-NH2] | –
11 | 51 ± 3 µM | 29.4 ± 0.5 s⁻¹ | 34 ± 1 µM | 31.6 ± 0.3 s⁻¹ | n.i. | n.i. | n.i. | 54 ± 3 µM | 33.4 ± 0.51 s⁻¹ | CC(C)C[C@H](NC(=O)[C@H](CCCNC(=N)N)NC(=O)[C@H](CCCCN)NC(=O)[C@@H](N)CCC(N)=O)C(N)=O [H-Gln-Lys-Arg-Leu-NH2] | –
12 | – | – | – | – | – | – | n.i. | 55 ± 3 µM | 52.8 ± 0.8 s⁻¹ | NC(=O)CC[C@H](N)C(=O)N[C@@H](CO)C(=O)N[C@@H](Cc1ccc(O)cc1)C(=O)N[C@@H](Cc1ccccc1)C(N)=O [H-Gln-Ser-Tyr-Phe-NH2] | –

Row | SMILES | Km (0.05 M Tris-HCl, pH 8.0) | kcat (0.05 M Tris-HCl, pH 8.0) | Km [1] | kcat [1] | Ki [1] | Ki (0.05 M Tris-HCl, pH 8.0) | Ki* (Table 6) | Km (Table 6, n.r. = not reactive) | kcat (Table 6, n.r. = not reactive) | Km
13 | NC(=O)CC[C@H](N)C(=O)N[C@@H](CCC(=O)O)C(=O)N[C@@H](Cc1ccc(O)cc1)C(N)=O [H-Gln-Glu-Tyr-NH2] | – | – | – | – | – | – | n.i. | – | 45.1 ± 0.4 s⁻¹ | 79 ± 2 µM
14 | C[C@H](NC(=O)[C@H](Cc1ccccc1)NC(=O)[C@@H](N)CCC(N)=O)C(N)=O [H-Gln-Phe-Ala-NH2] | – | – | – | – | – | – | n.i. | – | 109 ± 1 s⁻¹ | 69 ± 3 µM
15 | C[C@H](NC(=O)[C@H](Cc1c[nH]c2ccccc12)NC(=O)[C@@H](N)CCC(N)=O)C(N)=O [H-Gln-Trp-Ala-NH2] | – | 50.8 ± 0.6 s⁻¹ | – | 50.0 ± 0.4 s⁻¹ | n.i. | n.i. | n.i. | – | 47.0 ± 0.7 s⁻¹ | –
16 | C[C@H](NC(=O)[C@H](Cc1ccc(O)cc1)NC(=O)[C@@H](N)CCC(N)=O)C(=O)O [H-Gln-Tyr-Ala-OH] | – | – | – | – | – | – | n.i. | – | 125 ± 1 s⁻¹ | 101 ± 4 µM
